This is an account of results in paper PMC8418994 (Structure (London, England : 1993), 2021).

Sequences of proteins named here, by UniProt entry; tags and fusion partners are left off. Residues count along the entry.
UniProt P37231, 231-505: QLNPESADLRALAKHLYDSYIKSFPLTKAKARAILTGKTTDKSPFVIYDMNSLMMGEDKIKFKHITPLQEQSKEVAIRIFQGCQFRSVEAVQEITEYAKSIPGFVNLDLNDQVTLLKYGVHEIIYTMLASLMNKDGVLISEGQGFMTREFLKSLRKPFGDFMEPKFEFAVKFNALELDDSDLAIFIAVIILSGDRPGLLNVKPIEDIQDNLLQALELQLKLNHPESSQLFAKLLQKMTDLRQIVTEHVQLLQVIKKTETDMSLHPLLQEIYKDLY

Experiment [1] has as its target T1, PPARγ LBD (Homo sapiens, UniProt P37231). In words: Surface plasmon resonance. The class given is binding. As to conditions: two-step kinetic model fit. A general note: In SPR one partner is held on a chip, and binding of the other changes the refractive index at the surface.
Experiment [2] concerns the target T1, PPARγ LBD. Put plainly: Temperature-dependent isothermal titration calorimetry. The class given is binding. Particulars: ITC at 10, 18, 25, 30, 37°C; linear ΔH vs. temperature; wild-type PPARγ LBD. A general note: Isothermal titration calorimetry measures the heat released or taken up as one component is titrated into another.

Turning to `CN(CCOc1ccc(C[C@H](Nc2ccccc2C(=O)c2ccccc2)C(=O)O)cc1)c1ccccn1` [GW1929], the Ka2 association rate entry at PPARγ LBD [1] (conformational change step) is recorded as “slow”. Moreover, on PPARγ LBD [1] (initial binding step), the Ka1 association rate entry is “fast”. Besides, at PPARγ LBD [2], the “heat capacity (ΔCp) of binding” value is given as −0.55 kcal mol^−1 K^−1.
